Values quoted from earlier work in PMC5576036.

Amino acid sequences for entries named in this document (tags omitted). Residues count along the entry.
UniProt P01589, 22-240, chain 1 of 3: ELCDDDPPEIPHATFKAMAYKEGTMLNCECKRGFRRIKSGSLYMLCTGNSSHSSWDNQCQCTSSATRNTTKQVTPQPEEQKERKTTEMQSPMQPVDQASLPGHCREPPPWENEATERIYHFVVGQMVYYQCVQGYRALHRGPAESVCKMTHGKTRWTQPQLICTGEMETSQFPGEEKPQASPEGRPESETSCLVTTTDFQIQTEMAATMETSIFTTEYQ
UniProt P60568, 21-153: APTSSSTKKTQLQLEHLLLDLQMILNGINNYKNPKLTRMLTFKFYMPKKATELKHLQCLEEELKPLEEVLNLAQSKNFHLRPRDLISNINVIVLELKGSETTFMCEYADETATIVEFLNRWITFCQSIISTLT

Molecular target: high-affinity IL-2R (Homo sapiens) (UniProt P01589)

Kd: 0.01 nM
Substance: IL-2 (from UniProt P60568)
